Amino acid sequences for entries named in this document (tags omitted). Residues count along the entry.
UniProt P06756, 31-1048, chain 1 of 2: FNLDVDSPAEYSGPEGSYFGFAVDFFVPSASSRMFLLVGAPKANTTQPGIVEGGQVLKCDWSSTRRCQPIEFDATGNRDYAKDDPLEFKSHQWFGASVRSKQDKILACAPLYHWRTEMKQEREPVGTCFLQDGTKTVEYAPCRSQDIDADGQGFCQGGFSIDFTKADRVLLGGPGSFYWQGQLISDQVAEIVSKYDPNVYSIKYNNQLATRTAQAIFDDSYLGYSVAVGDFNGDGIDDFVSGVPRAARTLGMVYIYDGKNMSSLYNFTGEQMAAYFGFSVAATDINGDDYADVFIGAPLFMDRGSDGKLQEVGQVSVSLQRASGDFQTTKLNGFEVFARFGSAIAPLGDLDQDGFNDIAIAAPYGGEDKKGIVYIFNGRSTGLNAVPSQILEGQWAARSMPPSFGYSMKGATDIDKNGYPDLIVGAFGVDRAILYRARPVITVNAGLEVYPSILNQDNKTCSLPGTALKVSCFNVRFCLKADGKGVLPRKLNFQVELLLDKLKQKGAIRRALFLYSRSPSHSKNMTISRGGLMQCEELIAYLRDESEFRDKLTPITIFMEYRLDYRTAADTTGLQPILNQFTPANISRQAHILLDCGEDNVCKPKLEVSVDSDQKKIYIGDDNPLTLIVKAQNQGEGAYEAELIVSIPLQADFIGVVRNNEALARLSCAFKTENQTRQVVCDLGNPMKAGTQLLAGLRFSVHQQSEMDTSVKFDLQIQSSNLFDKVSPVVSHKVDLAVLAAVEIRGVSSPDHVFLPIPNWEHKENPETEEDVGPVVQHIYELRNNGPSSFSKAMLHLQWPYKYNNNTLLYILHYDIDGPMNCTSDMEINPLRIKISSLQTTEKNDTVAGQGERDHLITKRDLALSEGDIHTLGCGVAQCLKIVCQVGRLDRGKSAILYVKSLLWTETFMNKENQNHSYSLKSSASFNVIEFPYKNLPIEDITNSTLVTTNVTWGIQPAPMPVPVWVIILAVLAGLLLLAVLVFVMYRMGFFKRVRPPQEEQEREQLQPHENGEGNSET
Human fibronectin (fibronectin-coated coverslips, BD Biosciences), UniProt P02751, 32-2477 limits assumed: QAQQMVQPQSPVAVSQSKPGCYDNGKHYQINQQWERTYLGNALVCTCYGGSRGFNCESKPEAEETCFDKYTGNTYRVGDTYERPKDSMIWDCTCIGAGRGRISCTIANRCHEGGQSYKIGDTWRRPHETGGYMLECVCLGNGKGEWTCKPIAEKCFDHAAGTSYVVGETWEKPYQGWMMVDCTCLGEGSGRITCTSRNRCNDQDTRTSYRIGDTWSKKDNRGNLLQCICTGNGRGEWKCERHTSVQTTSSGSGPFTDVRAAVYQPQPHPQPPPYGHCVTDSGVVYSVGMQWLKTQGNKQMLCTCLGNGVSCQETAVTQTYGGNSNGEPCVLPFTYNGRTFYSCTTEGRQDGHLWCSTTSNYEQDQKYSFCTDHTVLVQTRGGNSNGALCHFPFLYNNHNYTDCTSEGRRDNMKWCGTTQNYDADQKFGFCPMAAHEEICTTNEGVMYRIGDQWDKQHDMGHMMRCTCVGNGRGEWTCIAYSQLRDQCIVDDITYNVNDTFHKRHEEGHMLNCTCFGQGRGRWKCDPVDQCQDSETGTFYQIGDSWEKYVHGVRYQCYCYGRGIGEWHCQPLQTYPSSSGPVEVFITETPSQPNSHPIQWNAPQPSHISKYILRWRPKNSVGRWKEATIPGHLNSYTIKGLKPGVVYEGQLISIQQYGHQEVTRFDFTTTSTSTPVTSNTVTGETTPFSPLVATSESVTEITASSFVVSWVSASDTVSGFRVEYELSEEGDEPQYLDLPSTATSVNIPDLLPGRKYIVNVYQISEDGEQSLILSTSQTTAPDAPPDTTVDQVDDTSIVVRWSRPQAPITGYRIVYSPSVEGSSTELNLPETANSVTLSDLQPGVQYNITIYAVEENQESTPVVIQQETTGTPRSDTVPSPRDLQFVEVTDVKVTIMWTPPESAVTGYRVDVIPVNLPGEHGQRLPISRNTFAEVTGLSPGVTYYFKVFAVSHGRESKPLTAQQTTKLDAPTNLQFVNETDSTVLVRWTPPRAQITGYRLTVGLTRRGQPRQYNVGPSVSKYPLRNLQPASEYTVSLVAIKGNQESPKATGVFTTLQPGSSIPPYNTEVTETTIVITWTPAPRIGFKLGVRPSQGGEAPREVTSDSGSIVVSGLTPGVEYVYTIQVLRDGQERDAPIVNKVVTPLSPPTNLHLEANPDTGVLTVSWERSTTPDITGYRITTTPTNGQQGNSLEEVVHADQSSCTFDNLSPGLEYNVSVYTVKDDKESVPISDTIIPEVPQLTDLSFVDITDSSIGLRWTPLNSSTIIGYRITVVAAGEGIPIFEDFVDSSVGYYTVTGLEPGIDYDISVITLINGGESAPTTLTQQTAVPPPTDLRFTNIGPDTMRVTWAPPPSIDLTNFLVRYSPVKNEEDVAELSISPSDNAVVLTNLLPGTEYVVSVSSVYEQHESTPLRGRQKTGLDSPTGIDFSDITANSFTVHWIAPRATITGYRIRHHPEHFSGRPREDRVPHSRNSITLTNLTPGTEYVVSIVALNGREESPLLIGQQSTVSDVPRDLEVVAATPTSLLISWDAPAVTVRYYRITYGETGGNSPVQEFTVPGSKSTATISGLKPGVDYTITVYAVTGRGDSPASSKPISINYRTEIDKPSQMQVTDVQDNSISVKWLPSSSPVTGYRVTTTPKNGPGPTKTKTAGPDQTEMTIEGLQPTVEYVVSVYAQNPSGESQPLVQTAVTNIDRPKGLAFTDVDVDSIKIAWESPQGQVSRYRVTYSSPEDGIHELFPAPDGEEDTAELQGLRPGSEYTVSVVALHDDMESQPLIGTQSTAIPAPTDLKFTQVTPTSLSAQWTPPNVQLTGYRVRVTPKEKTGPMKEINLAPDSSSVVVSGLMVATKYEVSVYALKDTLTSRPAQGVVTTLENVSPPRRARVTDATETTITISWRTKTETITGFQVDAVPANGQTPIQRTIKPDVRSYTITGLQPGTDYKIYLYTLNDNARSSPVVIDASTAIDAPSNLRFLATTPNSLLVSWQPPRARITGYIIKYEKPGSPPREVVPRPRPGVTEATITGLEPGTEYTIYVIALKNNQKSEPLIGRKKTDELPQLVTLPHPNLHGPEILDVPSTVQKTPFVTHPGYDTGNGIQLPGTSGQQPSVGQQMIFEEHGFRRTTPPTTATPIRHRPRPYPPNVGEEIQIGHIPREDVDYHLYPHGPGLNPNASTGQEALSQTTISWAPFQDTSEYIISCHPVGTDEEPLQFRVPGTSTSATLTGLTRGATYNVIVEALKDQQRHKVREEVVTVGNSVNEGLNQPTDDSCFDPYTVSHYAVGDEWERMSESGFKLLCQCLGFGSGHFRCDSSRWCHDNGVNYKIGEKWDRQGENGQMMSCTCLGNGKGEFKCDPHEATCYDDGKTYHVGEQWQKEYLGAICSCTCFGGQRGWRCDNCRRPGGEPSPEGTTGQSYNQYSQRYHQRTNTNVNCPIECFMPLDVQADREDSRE

In patent publication US8343539:

Tests used:
[1] = biological target: human integrin β1 subunit (human) (UniProt P05556); test: cell-based or functional assay
[2] = biological target: human αvβ3 integrin (human) (UniProt P06756); test: cell-based or functional assay

Human fibronectin (fibronectin-coated coverslips, BD Biosciences), P02751 32-2477 (ligand)
percentage of reduction in HUVEC adhesion by the anti-β1 blocking antibody (P5D2) compared to non-blocked cells [1]: 73.8% | percentage of reduction in HUVEC adhesion by the anti-αvβ3 blocking antibody (LM609) compared to non-blocked cells [2]: 72.4%
